From patent US20060094649A1, “Hla-a1,-a2,-a3,-a24,-b7, and-b44 tumor associated antigen peptides and compositions” (priority 2002, published 2006)

System: HLA-A3 supertype molecules
Assay: HLA-A3 supertype cross-binding (A*0301, A*1101, A*3101, A*3301, A*6801)

SMILES | Number of A3 alleles crossbound (Table 16c, Mage2/3-derived) | other results
CC[C@H](C)[C@H](N)C(=O)N[C@H](C(=O)N1CCC[C@H]1C(=O)N[C@@H](CO)C(=O)N[C@@H](Cc1ccc(O)cc1)C(=O)N[C@H](C(=O)N[C@@H](Cc1ccc(O)cc1)C(=O)N[C@@H](Cc1ccc(O)cc1)C(=O)N[C@@H](CCCNC(=N)N)C(=O)O)[C@@H](C)O)C(C)C [compound 51] |  | Number of A3 alleles crossbound (Table 16a, CEA-derived): 5
CC(C)C[C@H](NC(=O)[C@@H](NC(=O)[C@H](CC(C)C)NC(=O)[C@@H](NC(=O)[C@@H](N)CCCNC(=N)N)[C@@H](C)O)[C@@H](C)O)C(=O)N[C@@H](Cc1ccccc1)C(=O)N[C@@H](CC(N)=O)C(=O)N[C@H](C(=O)N[C@H](C(=O)N[C@@H](CCCNC(=N)N)C(=O)O)[C@@H](C)O)C(C)C [compound 52] |  | Number of A3 alleles crossbound (Table 16a, CEA-derived): 4
CC(C)C[C@H](NC(=O)[C@@H](NC(=O)[C@@H](N)CCCNC(=N)N)C(C)C)C(=O)N[C@H](C(=O)N[C@@H](CC(C)C)C(=O)N[C@@H](Cc1ccccc1)C(=O)N[C@@H](CC(N)=O)C(=O)N[C@H](C(=O)N[C@H](C(=O)N[C@@H](CCCNC(=N)N)C(=O)O)[C@@H](C)O)C(C)C)[C@@H](C)O [compound 53] |  | Number of A3 alleles crossbound (Table 16a, CEA-derived): 4
CC[C@H](C)[C@H](NC(=O)[C@H](Cc1ccccc1)NC(=O)[C@H](CC(C)C)NC(=O)[C@@H](NC(=O)[C@H](CCC(N)=O)NC(=O)[C@@H](NC(=O)[C@@H](N)Cc1c[nH]cn1)[C@@H](C)O)C(C)C)C(=O)N[C@@H](C)C(=O)N[C@@H](CCCCN)C(=O)O [compound 54] |  | Number of A3 alleles crossbound (Table 16a, CEA-derived): 4
CC(C)C[C@H](NC(=O)[C@H](CC(N)=O)NC(=O)[C@H](CO)NC(=O)[C@@H](NC(=O)[C@@H](N)Cc1ccccc1)C(C)C)C(=O)N[C@@H](C)C(=O)N[C@H](C(=O)NCC(=O)N[C@@H](CCCNC(=N)N)C(=O)O)[C@@H](C)O [compound 55] |  | Number of A3 alleles crossbound (Table 16a, CEA-derived): 4
CC[C@H](C)[C@H](NC(=O)CNC(=O)[C@H](Cc1ccccc1)NC(=O)[C@@H](NC(=O)CN)C(C)C)C(=O)N[C@@H](CC(C)C)C(=O)N[C@H](C(=O)N[C@@H](CCCCN)C(=O)N[C@@H](CCCNC(=N)N)C(=O)O)[C@@H](C)CC [compound 56] |  | Number of A3 alleles crossbound (Table 16b, Her2/neu-derived): 3
CC[C@H](C)[C@H](NC(=O)CNC(=O)[C@H](Cc1ccccc1)NC(=O)[C@@H](NC(=O)[C@@H](N)C(C)C)C(C)C)C(=O)N[C@@H](CC(C)C)C(=O)N[C@H](C(=O)N[C@@H](CCCCN)C(=O)N[C@@H](CCCNC(=N)N)C(=O)N[C@@H](CCCNC(=N)N)C(=O)O)[C@@H](C)CC [compound 58] |  | Number of A3 alleles crossbound (Table 16b, Her2/neu-derived): 4
CC[C@H](C)[C@H](NC(=O)CNC(=O)[C@H](Cc1ccccc1)NC(=O)[C@@H](NC(=O)[C@@H](N)C(C)C)C(C)C)C(=O)N[C@@H](CC(C)C)C(=O)N[C@H](C(=O)N[C@@H](CCCCN)C(=O)N[C@@H](CCCCN)C(=O)N[C@@H](CS)C(=O)O)[C@@H](C)CC [compound 59] |  | Number of A3 alleles crossbound (Table 16b, Her2/neu-derived): 3
CC[C@H](C)[C@H](NC(=O)[C@@H](N)CCCCN)C(=O)N[C@@H](CCCNC(=N)N)C(=O)N[C@@H](CCCCN)C(=O)N[C@@H](Cc1ccc(O)cc1)C(=O)N[C@H](C(=O)N[C@@H](CCSC)C(=O)N[C@@H](CCCNC(=N)N)C(=O)N[C@@H](CCCCN)C(=O)O)[C@@H](C)O [compound 61] |  | Number of A3 alleles crossbound (Table 16b, Her2/neu-derived): 1
CC[C@H](C)[C@H](NC(=O)[C@@H](NC(=O)[C@@H](NC(=O)[C@H](CO)NC(=O)[C@H](Cc1ccccc1)NC(=O)[C@H](CO)NC(=O)[C@@H](N)CO)[C@@H](C)O)[C@@H](C)O)C(=O)N[C@@H](CC(N)=O)C(=O)N[C@@H](Cc1ccc(O)cc1)C(=O)O [compound 76] | 1 | 
CC[C@H](C)[C@H](NC(=O)[C@@H](NC(=O)[C@@H](NC(=O)[C@H](CO)NC(=O)[C@H](Cc1ccccc1)NC(=O)[C@H](CO)NC(=O)[C@@H](N)CO)[C@@H](C)O)[C@@H](C)O)C(=O)N[C@@H](CC(N)=O)C(=O)N[C@@H](CCCCN)C(=O)O [compound 77] | 3 | 
CC[C@H](C)[C@H](NC(=O)[C@@H](NC(=O)[C@@H](NC(=O)[C@H](CO)NC(=O)[C@H](Cc1ccccc1)NC(=O)[C@@H](NC(=O)[C@@H](N)CO)C(C)C)[C@@H](C)O)[C@@H](C)O)C(=O)N[C@@H](CC(N)=O)C(=O)N[C@@H](CCCCN)C(=O)O [compound 78] | 3 | 
CC[C@H](C)[C@H](NC(=O)[C@@H](NC(=O)[C@@H](NC(=O)[C@H](CO)NC(=O)[C@H](Cc1ccccc1)NC(=O)[C@@H](NC(=O)[C@@H](N)CO)C(C)C)[C@@H](C)O)[C@@H](C)O)C(=O)N[C@@H](CC(N)=O)C(=O)N[C@@H](CCCNC(=N)N)C(=O)O [compound 79] | 5 | 
CC[C@H](C)[C@H](NC(=O)[C@@H](NC(=O)[C@@H](NC(=O)[C@@H](N)CO)[C@@H](C)O)[C@@H](C)O)C(=O)N[C@@H](CC(N)=O)C(=O)N[C@@H](Cc1ccc(O)cc1)C(=O)N[C@H](C(=O)N[C@@H](CC(C)C)C(=O)N[C@@H](Cc1c[nH]c2ccccc12)C(=O)N[C@@H](CCCCN)C(=O)O)[C@@H](C)O [compound 81] | 3 | 
CC[C@H](C)[C@H](NC(=O)[C@@H](NC(=O)[C@@H](N)[C@@H](C)O)C(C)C)C(=O)N[C@@H](CC(N)=O)C(=O)N[C@@H](Cc1ccc(O)cc1)C(=O)N[C@H](C(=O)N[C@@H](CC(C)C)C(=O)N[C@@H](Cc1c[nH]c2ccccc12)C(=O)N[C@@H](CCCNC(=N)N)C(=O)O)[C@@H](C)O [compound 83] | 4 | 
CC[C@H](C)[C@H](NC(=O)[C@@H](NC(=O)[C@@H](N)[C@@H](C)O)C(C)C)C(=O)N[C@@H](CC(N)=O)C(=O)N[C@@H](Cc1ccc(O)cc1)C(=O)N[C@H](C(=O)N[C@@H](CC(C)C)C(=O)N[C@@H](Cc1c[nH]c2ccccc12)C(=O)N[C@@H](CCCCN)C(=O)O)[C@@H](C)O [compound 84] | 3 | 
CC(C)C[C@H](NC(=O)[C@H](CC(C)C)NC(=O)[C@H](CC(C)C)NC(=O)[C@H](Cc1ccccc1)NC(=O)[C@H](Cc1c[nH]cn1)NC(=O)[C@@H](NC(=O)[C@@H](N)CC(C)C)C(C)C)C(=O)N[C@@H](CCCCN)C(=O)O [compound 85] | 3 | 
CC(C)C[C@H](NC(=O)[C@H](CC(C)C)NC(=O)[C@H](CC(C)C)NC(=O)[C@H](Cc1ccccc1)NC(=O)[C@H](Cc1c[nH]cn1)NC(=O)[C@@H](NC(=O)[C@@H](N)CC(C)C)C(C)C)C(=O)N[C@@H](CCCCN)C(=O)N[C@@H](Cc1ccc(O)cc1)C(=O)O [compound 86] | 2 | 
CC(C)C[C@H](NC(=O)[C@H](CC(C)C)NC(=O)[C@H](CC(C)C)NC(=O)[C@H](Cc1ccccc1)NC(=O)[C@H](Cc1c[nH]cn1)NC(=O)[C@@H](NC(=O)[C@@H](N)CC(C)C)C(C)C)C(=O)N[C@@H](CCCCN)C(=O)N[C@@H](CCCCN)C(=O)O [compound 87] | 3 | 
CC(C)C[C@H](NC(=O)[C@H](CC(C)C)NC(=O)[C@H](CC(C)C)NC(=O)[C@H](Cc1ccccc1)NC(=O)[C@H](Cc1c[nH]cn1)NC(=O)[C@@H](NC(=O)[C@@H](N)CC(C)C)C(C)C)C(=O)N[C@@H](CCCCN)C(=O)N[C@@H](CCCNC(=N)N)C(=O)O [compound 88] | 5 | 
